Laboratory results as given in patent US20120100077A1, “MIXTURE OF AMPHIPATHIC MOLECULES AND METHOD FOR MODIFYING CELL MEMBRANES BY MEANS OF FUSION” (priority 2009, published 2012).

Test system: cell membrane
Test: Fusion quality of R groups bound to amphipathic molecules B in the fusion mixture

## 1,2-dioleoyl-sn-glycero-3-phosphoethanolamine-N-(carboxyfluorescein) (ammonium salt)
  Fusion quality: 3
